## OPERA 2.9 data: properties

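The OPERA project collected these measurements from public sources as training and test data for property models. One number stands for a compound and property, with no spread given. Conditions of the individual experiments are not part of the data. Where a salt, mixture or single isomer is drawn, the source does not say that exactly this form was tested. Some upstream entries may be estimates or bounds without being marked so.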

The melting point is given in degrees Celsius. The boiling point refers to atmospheric pressure (760 mmHg), by the definition of the set. logP is the log10 of the octanol-water partition coefficient; higher is more lipophilic. Water solubility is log10 of mol/L, nominally at 25 °C; higher is more soluble. Vapor pressure is log10 of mmHg; the set covers 15 to 30 °C, mostly 20 to 25 °C. The Henry's law constant is on a log10 scale in atm·m3/mol (set defined at 25 °C); higher favours air over water.

The entry for CCCCCCCCCCCCCCCC(=O)OCCCCCCCCCCCCCCCC(C)C [Hexadecanoic acid, isooctadecyl ester] lists melting point -12 °C and log solubility -7.008 (log10 mol/L).
The entry for C=C(C#N)C(=O)OCCCC [Butyl 2-cyanoacrylate] lists melting point -21 °C and log VP -0.011 (log10 mmHg).
The entry for Cc1ccc2c(c1)[C@H](N)[C@@H](C)C2 [(1R,2S)-2,6-Dimethylindan-1-amine] lists log solubility -1.716 (log10 mol/L) and log VP -3.166 (log10 mmHg).
The entry for O=C(O)c1cccc(Oc2ccccc2)c1 [3-Phenoxybenzoic acid] lists log solubility -4.1 (log10 mol/L) and log VP -5.354 (log10 mmHg) and log H -8.626 (log10 atm·m3/mol).
The entry for Cc1ccc(S(=O)(=O)OCCc2cccs2)cc1 [2-(2-Thienyl)ethyl toluene-p-sulphonate] lists melting point 33.6 °C and log Kow 2.8 and log solubility -4.398 (log10 mol/L) and log VP -6.339 (log10 mmHg).
The entry for CC(=CC(C)C)C(C)OC(C)(C)COC(=O)C1CC1 (stereo not given) lists BP 309.9 °C and log solubility -4.283 (log10 mol/L) and log VP -2.463 (log10 mmHg).
The entry for CCCCCC1CCC(=O)CC1 [4-Pentylcyclohexanone] lists log Kow 4.5 and log solubility -3.185 (log10 mol/L) and log VP -1.824 (log10 mmHg).
The entry for C=CC(=O)OCCCCOC(=O)Oc1ccc2cc(C(=O)Oc3ccc(OC(=O)c4ccc5cc(OC(=O)OCCCCOC(=O)C=C)ccc5c4)c(C(=O)OC)c3)ccc2c1 lists melting point 105.4 °C and log solubility -6.23 (log10 mol/L).
The entry for C=CC(=O)OCc1c(Br)c(Br)c(Br)c(Br)c1Br [(Pentabromophenyl)methyl acrylate] lists log Kow 5.11 and log solubility -7.806 (log10 mol/L).
The entry for CCCCOC(=O)CCC(C)=O [Butyl 4-oxopentanoate] lists log Kow 1.435 and log solubility -1.199 (log10 mol/L).
The entry for CC(CCC(=O)O)C(=O)O (stereo not given) [2-Methylpentanedioic acid] lists BP 289 °C and log Kow 0.177 and log VP -5.214 (log10 mmHg).
The entry for COC(=O)C(N)C(C)O (stereo not given) lists log Kow -1.2 and log VP -2.046 (log10 mmHg).
The entry for CCCCCOC(=O)CCCC [Pentyl valerate] lists log Kow 4.6 and log solubility -3.624 (log10 mol/L).
The entry for CC(=O)CC(C)(C)c1ccccc1 [2-Pentanone, 4-methyl-4-phenyl-] lists log Kow 2.77 and log solubility -2.338 (log10 mol/L) and log VP -1.736 (log10 mmHg).
The entry for CCCCC(CC)COC(=O)C1CCC2OC2C1 (stereo not given) lists log solubility -3.326 (log10 mol/L) and log VP -3.453 (log10 mmHg).
The entry for CC12CCCC(C)(CC1)C2=NO [1,5-Dimethylbicyclo[3.2.1]octan-8-one oxime] lists melting point 132.3 °C and log Kow 2.94 and log solubility -3.074 (log10 mol/L) and log VP -3.034 (log10 mmHg).
The entry for CCc1ncc[nH]1 [1H-Imidazole, 2-ethyl-] lists log Kow 0.55 and log VP -3.222 (log10 mmHg).
The entry for Cl/C(=C\c1ccccc1)c1ccccc1 [1,1'-[(Z)-1-Chloro-1,2-ethenediyl]dibenzene] lists melting point 53.5 °C and BP 322 °C.
The entry for COCCOCCOc1cc(Nc2c(C)cc(C)c(S(=O)(=O)[O-])c2C)c2c(c1N)C(=O)c1ccccc1C2=O.[Na+] lists melting point 191 °C and log Kow -0.27.
The entry for CN1CCCCC1CCN1c2ccccc2Sc2ccc(S(C)=O)cc21 (stereo not given) [Mesoridazine] lists log Kow 3.9 and log solubility -3.702 (log10 mol/L).
The entry for CC(=O)Oc1ccc([N+](=O)[O-])cc1 [Acetic acid, 4-nitrophenyl ester] lists log solubility -2.599 (log10 mol/L) and log VP -2.018 (log10 mmHg).
The entry for COc1ccc(NC(=O)[C@@H]2C[C@H](C)CC[C@H]2C(C)C)cc1 lists melting point 178.4 °C and log Kow 3.95 and log solubility -5.821 (log10 mol/L) and log VP -10.23 (log10 mmHg).
The entry for NC(=O)[C@@H]1CCCN1 [Prolinamide] lists log Kow -1 and log VP -3.08 (log10 mmHg).
The entry for CC(C)=CCC/C(C)=C/COC=O [Geranyl formate] lists log Kow 4.1 and log solubility -3.746 (log10 mol/L) and log VP -1.037 (log10 mmHg).

The first 2 entries again:

{"smiles": "CCCCCCCCCCCCCCCC(=O)OCCCCCCCCCCCCCCCC(C)C", "name": "Hexadecanoic acid, isooctadecyl ester", "melting point (°C)": "-12", "log solubility (log10 mol/L)": "-7.008"}
{"smiles": "C=C(C#N)C(=O)OCCCC", "name": "Butyl 2-cyanoacrylate", "melting point (°C)": "-21", "log VP (log10 mmHg)": "-0.011"}

Source: data files of OPERA 2.9 (Mansouri et al.), github.com/kmansouri/OPERA.